In patent US20150141438A1, “METHODS FOR DELAYING OR PREVENTING THE ONSET OF TYPE 1 DIABETES” (Pharmacyclics, Inc., priority 2013, published 2015):

Test system: anti-insulin B cells
Assay: BTK inhibitor treatment of 125Tg/NOD mice (Ibrutinib chow); B cell subsets assessed by flow cytometry in freshly isolated organs
Assay type: in vivo, mouse
Conditions: Ibrutinib chow 5-10 weeks, placebo 83±32, p=0.57, no difference
Procedure: After 5-10 weeks, spleen, draining pancreatic lymph nodes, and pancreas were harvested and flow cytometry was used to analyze B cell subsets. […] Mice were 12-13 weeks old at time of analysis.
B cell subsets were assessed by flow cytometry in freshly isolated organs as outlined below.
BM was eluted from long bones, and spleens and pancreatic draining lymph nodes (PLN) were macerated with HBSS (Invitrogen) plus 10% FBS (HyClone). Red blood cells were lysed using Tris-NH4Cl. Freshly isolated pancreata were digested with 3 mL of 1 mg/mL collagenase P diluted in HBSS for 30 min at 37° C., then tissue was disrupted using an 18-gauge needle. Ice cold HBSS plus 10% FBS was immediately added to inhibit collagenase activity. Cells were directly analyzed by flow cytometry. Flow cytometry Ab reagents were reactive with B220 (6B2), IgM^a (DS-1), CD19 (1D3), CD21 (7G6), CD23 (B3B4), CD93 (AA4.1), or IgM chain-specific) (Life Technologies). Biotin N-hydroxysuccinimide ester (Sigma) was used to biotinylate human insulin (Sigma) at pH 8.0 in bicine buffer. Streptavidin reagents (BD Biosciences) were used to detect biotinylated reagents. 7AAD (BD Biosciences) was used to identify dead cells. Sample acquisition was performed using an LSR II flow cytometer (BD Biosciences) and FlowJo software (Treestar) was used for analysis. […]

C=CC(=O)N1CCC[C@@H](n2nc(-c3ccc(Oc4ccccc4)cc3)c3c(N)ncnc32)C1 [Ibrutinib, (R)-1-(3-(4-amino-3-(4-phenoxyphenyl)-1H-pyrazolo[3,4-d]pyrimidin-1-yl)piperidin-1-yl)prop-2-en-1-one]
T1 B cell subset numbers in the spleen: 63±47 ×104
